Experimental data taken from PubChem BioAssay (NCATS).
The entries are a selection whose mix differs from that of the whole data set. Inconclusive results are not listed. Active and inactive are the calls of the source. The call rests on the fitted dose curve; in most records, active means well fitted curve in the direction sought with a large enough effect; inconclusive means small, poorly fitted or top-dose-only effect, or another doubt; inactive means no such curve, though single readings can be large; an effect the other way counts as inactive or inconclusive.

Key:
[1] = Quantitative High-Throughput drug screen in 47 multiple myeloma cell lines against the NCATS MIPE library collection: JIM1_ECACC cell viability assay (AID 1918964); details: JIM1 myeloma viability, CellTiter-Glo ATP luminescence, 48 h; at 45.8 µM (top of the series)
Outline: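 Relative luminescence from CellTiter-Glo served as the viability signal, referenced to DMSO-treated (100%) and cell-free medium (0%) controls. Treatment lasted 48 hours at 37C with 500 cells per well.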

[2] = Quantitative High-Throughput drug screen in 47 multiple myeloma cell lines against the NCATS MIPE library collection: INA6_PLB cell viability assay (AID 1918965;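 further: 100% = DMSO-only wells and 0% = media-only wells without cells; nearly all actives have a fitted effect of over 55% in size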); details: INA6 myeloma viability, CellTiter-Glo ATP luminescence, 48 h; at 45.8 µM (top of the series)
Outline: (§1)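 Viability readout: CellTiter-Glo luminescence following 5 min room-temperature incubation with reagent. Prior exposure: 48 h, 37C, humidified 5% CO2, 500 cells per well.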

[3] = Quantitative High-Throughput drug screen in 47 multiple myeloma cell lines against the NCATS MIPE library collection: JJN3_DSMZ cell viability assay (AID 1918966; further: nearly all actives have a fitted effect of over 50% in size); details: JJN3 myeloma cells viability, CellTiter-Glo ATP, 48 h; at 45.8 µM (top of the series)
From the text: (§2) PI: Beverly A. Mock Ph.D.
(§3) Laboratory of Cancer Biology and Genetics,
(§4) Center for Cancer Research, National Cancer Institute,
(§5) National Institute of Health, Bethesda, Maryland
(§6) Drug resistance and disease progression are common in multiple myeloma (MM) patients, underscoring the need for new therapeutic combinations. […] We hypothesized that effective combinations would reduce MYC expression and enhance p16 activity. […] These preclinical data identify potentially useful drug combinations for evaluation in drug-resistant MM and reveal potential mechanisms of combined drug sensitivity.
(§7) Described herein is the primary MIPE qHTS used to cherrypick compounds. Validated compounds were then further tested for potential synergistic activiy.
[1] […]
(§8) 5; Detector; 425V; Luminescence; Viewlux PerkinElmer. […]
(§9) 1. […] Briefly, the corresponding myeloma cell lines were screened in 1,536-well plates with 500 cells, 5-uL per well for inhibition of cell viability (assessed by measuring ATP levels with CellTiterGlo). […]
(§10) 5. Signal was measured as median relative luminescence units on a ViewLux (PerkinElmer) multiplate reader. […]

[4] = Quantitative High-Throughput drug screen in 47 multiple myeloma cell lines against the NCATS MIPE library collection: Karpas25_ECACC cell viability assay (AID 1918968;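 further: 100% = DMSO only wells and 0% = media only wells; nearly all actives have a fitted effect of over 35% in size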); details: Karpas25 myeloma viability, CellTiter-Glo ATP, 48 h; at 45.8 µM (top of the series)
From the text: as §2, §3, §4, §5, §6, §7
[1] […]
as §8, §9, §10

[5] = Quantitative High-Throughput drug screen in 47 multiple myeloma cell lines against the NCATS MIPE library collection: KMS12PE_JCRB cell viability assay (AID 1918972); details: KMS12PE myeloma viability, CellTiter-Glo ATP, 48 h; at 45.8 µM (top of the series);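 further: 100% = DMSO only wells and 0% = wells with media alone; nearly all actives have a fitted effect of over 30% in size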
Outline: as §1

[6] = Quantitative High-Throughput drug screen in 47 multiple myeloma cell lines against the NCATS MIPE library collection: KMS20_JCRB cell viability assay (AID 1918973); details: CellTiter-Glo ATP, 48 h; at 45.8 µM (top of the series);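 further: 100% = DMSO only wells and 0% = media only wells; nearly all actives have a fitted effect of over 45% in size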
From the text: as §2, §3, §4, §5, §6, §7
[1] […]
as §8, §9, §10

[7] = Quantitative High-Throughput drug screen in 47 multiple myeloma cell lines against the NCATS MIPE library collection: KMS26_JCRB cell viability assay (AID 1918975); details: KMS26 myeloma cells viability, CellTiter-Glo ATP, 48 h; at 45.8 µM (top of the series);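 further: 100% = DMSO-treated wells and 0% = wells with media only; nearly all actives have a fitted effect of over 45% in size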
From the text: as §2, §3, §4, §5, §6, §7
[1] […]
as §8, §9, §10

[8] = Quantitative High-Throughput drug screen in 47 multiple myeloma cell lines against the NCATS MIPE library collection: MMM1_PLB cell viability assay (AID 1918976); details: MM.1S-type MMM1 myeloma cells viability, CellTiter-Glo, 48 h; at 45.8 µM (top of the series); further: nearly all actives have a fitted effect of over 35% in size
Outline: (§11)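 Cells were exposed to library compounds for 48 hours, after which ATP was measured by CellTiter-Glo. Signal was taken as median relative luminescence units.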

[9] = Quantitative High-Throughput drug screen in 47 multiple myeloma cell lines against the NCATS MIPE library collection: MOLP8_DSMZ cell viability assay (AID 1918977); details: MOLP8 myeloma viability, CellTiter-Glo ATP luminescence, 48 h; at 45.8 µM (top of the series);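 further: 100% = DMSO-only wells and 0% = media-only wells without cells; nearly all actives have a fitted effect of over 45% in size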
From the text: as §2, §3, §4, §5, §6, §7
[1] […]
as §8, §9, §10

[10] = Quantitative High-Throughput drug screen in 47 multiple myeloma cell lines against the NCATS MIPE library collection: NCIH929_DSMZ cell viability assay (AID 1918978); details: NCI-H929 myeloma viability, CellTiter-Glo ATP, 48 h; at 45.8 µM (top of the series); further: nearly all actives have a fitted effect of over 35% in size
Outline: as §11

CCOC(=O)C(=O)CBr
inactive: viability (% of DMSO) [1] 64.3% | viability (% of control) [2] 137% | viability, % of DMSO [3] 113% | viability (% of control) [4] 97.5% | viability [5] 94.1% | viability (% of DMSO) [6] 101% | viability (% of DMSO) [7] 120% | viability (% of control) [8] 108% | viability (% of control) [9] 88.9% | viability, % of control [10] 99.3%
